Laboratory results taken from a melting point compilation (Tetko et al.).

CCOc1nc(C(Cl)(Cl)Cl)ns1
melting point: 22 °C
